Here are results for two molecules from PMC9959349, “Discovery of the 3-Amino-1,2,4-triazine-Based Library as Selective PDK1 Inhibitors with Therapeutic Potential in Highly Aggressive Pancreatic Ductal Adenocarcinoma” (International Journal of Molecular Sciences, 2023).

Amino acid sequences for entries named in this document (tags omitted). Residues count along the entry.
UniProt Q15118, 29-436 limits assumed: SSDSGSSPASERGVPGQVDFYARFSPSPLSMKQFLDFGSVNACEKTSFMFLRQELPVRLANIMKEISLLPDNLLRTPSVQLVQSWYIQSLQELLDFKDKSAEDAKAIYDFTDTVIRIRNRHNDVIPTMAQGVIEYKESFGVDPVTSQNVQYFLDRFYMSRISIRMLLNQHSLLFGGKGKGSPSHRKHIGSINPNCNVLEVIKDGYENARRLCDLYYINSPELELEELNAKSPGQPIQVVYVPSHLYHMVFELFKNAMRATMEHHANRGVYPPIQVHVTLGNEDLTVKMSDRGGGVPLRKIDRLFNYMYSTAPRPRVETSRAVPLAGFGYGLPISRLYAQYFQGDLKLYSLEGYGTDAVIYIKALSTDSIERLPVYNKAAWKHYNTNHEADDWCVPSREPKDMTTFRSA

pIC50: −log10 of the molar value.

For series [1], the system named is PSN-1 cells. The series is described as follows: Mitochondrial membrane potential (Mito-ID kit). As to conditions: IC50 concentrations.
The next series has as its system BxPC-3 cells. The series is described as follows: 3D spheroid cytotoxicity, acid phosphatase (APH) assay, BxPC-3. As to conditions: read-out: IC50 ±S.D. BxPC-3 (3D cytotoxicity); spheroids, 72 h, APH test.
A further series addresses recombinant human PDK1 (Homo sapiens, UniProt Q15118). The series is described as follows: ADP-Glo kinase assay, PDK1. As to conditions: read-out: IC50 ±S.D. PDK1; four-parameter logistic model, three independent experiments. For orientation: ADP-Glo first removes unused ATP, then detects ADP through luciferase.
In series [2] the test system is PSN-1 cells. Description: 3D spheroid cytotoxicity, acid phosphatase (APH) assay, PSN-1. The settings on record: read-out: IC50 ±S.D. PSN-1 (3D cytotoxicity); spheroids, 72 h, APH test.

What is called pIC50 is the IC50 on a negative log10 scale, so that one unit is a factor of ten. Regarding `COc1ccc2c(c1)c(-c1nc(N)nnc1-c1c[nH]c3ccc(F)cc13)cn2C`, in the series with PSN-1 cells [1], the “increase in cell population with depleted ΔΨ” value is recorded as “about 50%”. The figures for the pIC50 with BxPC-3 cells, on recombinant human PDK1 and in the series on PSN-1 cells [2] were 4.91, 7.00 and 4.82, respectively.

Regarding `COc1ccc2c(c1)c(-c1nc(N)nnc1-c1cn(C)c3ccc(Br)cc13)cn2C`, the “increase in cell population with depleted ΔΨ” value in the series on PSN-1 cells [1] was “about 50%”. Moreover, the pIC50 in the series on BxPC-3 cells is 4.28; with PSN-1 cells [2], 5.06.
